In ChEMBL document CHEMBL1130264 (J Med Chem, 1997):

Biological target: Neuronal acetylcholine receptor
Test: Compound was evaluated for functional potency and efficacy at rat Nicotinic acetylcholine receptor in PC12 cells (ganglionic)
Format: cell-based
Conditions: pc-12

For `CNC1(C)C2CCC(C2)C1(C)C` (stereo unspecified) [MECAMYLAMINE], the EC50 was 0.2 µM.
